Our source for the preferential tissue binding values is patent US20060269942A1, “In situ click chemistry method for screening high affinity molecular imaging probes” (priority 2005, published 2006).

The series concerns CA-II. The conditions noted are these: 18F-labeled; correlates with high expression levels of CA-II.

Turning to “4-[^18F]fluoropyridine-valine-benzenesulfonamide [18F-labeled CA-II imaging agent]”, the preferential tissue binding entry was “preferentially binds to lungs, kidneys and blood”.
